The entries are a selection whose mix differs from that of the whole data set. Activity calls are given as the source filed them.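 How the source made its calls: active means percent activity GTP binding at least 20 points away from the 100% baseline, either down as inhibitor or up as activator; inconclusive means compound flagged as likely green fluorescent from well-wide comparison; inactive means the rest.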
Target: Cell division control protein 42 homolog (Homo sapiens) (UniProt P60953)
Assay: wildtype Cdc42 fluorescent GTP binding changes, either direction – biochemical, multiplex bead flow cytometry, Bodipy-GTP, primary screen (AID 761);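 further: median bead fluorescence of bound Bodipy-FL-GTP at 100 nM; 0% = excess unlabeled GTP control and 100% = no compound control; below 100% means less GTP binding so inhibitor and above means activator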
Details: GST-Cdc42 beads, at 10 µM, actives lie on both sides

Protein sequences, listed by entry. Tags and fused reporters are not part of them.
UniProt P60953, whole entry, looked up: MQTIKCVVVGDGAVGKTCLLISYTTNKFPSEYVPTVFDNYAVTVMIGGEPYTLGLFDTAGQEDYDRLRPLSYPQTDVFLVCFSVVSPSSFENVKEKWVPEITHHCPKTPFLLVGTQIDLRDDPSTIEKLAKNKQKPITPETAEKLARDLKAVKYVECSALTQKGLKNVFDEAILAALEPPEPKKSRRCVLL

| Structure (SMILES) | percent activity (GTP binding) |
| --- | --- |
| O=[N+]([O-])c1ccc2c(c1)nnn2O | inactive: 104% |
| CCOP1(=S)c2c(C)nn(CCC#N)c2N=C(c2ccc(F)cc2)N1C (stereo not given) | inactive: 92% |
| O=P(Nc1nccs1)(Oc1ccccc1)Oc1ccccc1 | inactive: 98% |
| O=P(Nc1nccs1)(c1ccccc1)c1nc2ccccc2s1 (stereo not given) | inactive: 100% |
| CCOP1(=S)c2c(C)nn(CCC#N)c2N=C(c2ccccc2F)N1C (stereo not given) | inactive: 101% |
| Cc1ccc(NCCc2c([N+](=O)[O-])cc([N+](=O)[O-])cc2[N+](=O)[O-])cc1 | inactive: 98% |
| CCOP(=O)(Nc1cccc2ccccc12)OCC | inactive: 98% |
| COc1cc(C2NCCC3(OCCO3)C2(C)C)cc(OC)c1OC (stereo not given) | inactive: 100% |
| COc1cc(C(=O)NCC2(N3CCOCC3)CCCCC2)cc(Cl)c1OC(C)C | inactive: 96% |
| Cc1cccc(OCC(=O)OC2CN3CCC2CC3)c1 (stereo not given) | inactive: 104% |
| CC(C)/C=N\N=C(\N)N[N+](=O)[O-] | inactive: 95% |
| O=P1(Nc2ccccn2)COc2ccccc2OC1 | inactive: 104% |
| Clc1n[nH]nc1-c1nn[nH][15n]1 | inactive: 104% |
| O=P1(Nc2ncccn2)COc2ccccc2OC1 | inactive: 103% |
| Cc1ccc(OCC(=O)OC2CN3CCC2CC3)cc1 (stereo not given) | inactive: 102% |
| O=P1(Nc2ccc(Br)cn2)COc2ccccc2OC1 | inactive: 102% |
| CC1CCC(C(C)C)C(OP(=O)(Nc2ccccn2)c2ccccc2)C1 (stereo not given) | inactive: 97% |
| Cc1nn(-c2ccccc2)c2c1P(=O)(N1CCOCC1)N(C)C(c1ccccc1)=N2 (stereo not given) | inactive: 104% |
| CN(C)C1(CNC(=O)c2ccc(S(C)(=O)=O)cc2)CCCCC1 | inactive: 98% |
| O=P(Nc1ccccn1)(c1cccc2ccccc12)c1cccc2ccccc12 | inactive: 99% |
| Cc1cc(SC(NC=O)C(Cl)(Cl)Cl)ncn1 (stereo not given) | inactive: 96% |
| Cc1cc(SC(NC(=O)c2ccccc2)C(Cl)(Cl)Cl)nc(C(C)C)n1 (stereo not given) | inactive: 101% |
| CCC(C)N(CC(C)C)C(=S)SC(NC(C)=O)C(Cl)(Cl)Cl (stereo not given) | inactive: 98% |
| COP1(=S)c2c(C)nn(CCC#N)c2N=C(c2ccc(F)cc2)N1C (stereo not given) | inactive: 98% |
| O=C(COc1ccccc1)OC1CN2CCC1CC2 (stereo not given) | inactive: 102% |

| Structure (SMILES) | percent activity (GTP binding) |
| --- | --- |
| COc1ccc(N/C(=N/P(=O)(N2CCOCC2)N2CCOCC2)N2CCOCC2)cc1 | inactive: 97% |
| Cc1cc(=O)[nH]c(N[N+](=O)[O-])n1 | inactive: 98% |
| Cc1c2c(nc3ccccc13)SC(C(Cl)Cl)C2 (stereo not given) | inactive: 100% |
| COc1ccc2nc(NP(=O)(c3ccccc3)c3ccccc3)sc2c1 | inactive: 94% |
| ClCCSc1nnc(-c2cccnc2)o1 | inactive: 102% |
| O=[N+]([O-])c1cc([N+](=O)[O-])c(-c2ccn[nH]2)s1 | inactive: 102% |
| CC(C)NC(=O)NP(=O)(Oc1ccccc1)Oc1ccccc1 | inactive: 98% |
| CCN(CC)C(=S)SC(NC=O)C(Cl)(Cl)Cl (stereo not given) | inactive: 96% |
| Cc1ccc2nc3c(c(C)c2c1)CC(C(Cl)Cl)S3 (stereo not given) | inactive: 97% |
| CCN(N=Nc1nonc1N)c1nonc1N | inactive: 100% |
| Cc1cc(SC(NC(=O)c2ccc(F)cc2)C(Cl)(Cl)Cl)ncn1 (stereo not given) | inactive: 101% |
| CCOP(=O)(Nc1ccccc1)OCC | inactive: 108% |
| CC(C)CC(=O)NC(Sc1ccc(Cl)cc1)C(Cl)(Cl)Cl (stereo not given) | inactive: 97% |
| O=C(NC(Sc1ccncn1)C(Cl)(Cl)Cl)c1ccccc1 (stereo not given) | inactive: 97% |
| Cc1c2non([O-])c-2c(C)[n+](=O)[n+]1[O-] | inactive: 99% |
| Oc1ccccc1CNc1ccccn1 | inactive: 101% |
| NC(=O)c1cc([N+](=O)[O-])cc([N+](=O)[O-])c1N | inactive: 97% |
| Cc1ccc(N/C(=N/P(=O)(N2CCOCC2)N2CCOCC2)N2CCOCC2)cc1 | inactive: 98% |
| CN1CCCC(OC(=O)C(c2ccccc2)c2ccccc2)C1 (stereo not given) | inactive: 99% |
| Clc1ccc(Cl)c(NC2=NCC(CBr)S2)c1 (stereo not given) | inactive: 99% |
| CCN(/C(=N/P(=O)(N1CCOCC1)N1CCOCC1)N1CCOCC1)c1ccc(OC)cc1 | inactive: 97% |
| CN(C)C(=O)OCCc1n(C)cc[n+]1C | inactive: 101% |
| CC1CCN(C(=O)Oc2c(Cl)cc(Cl)c3cccnc23)CC1 | inactive: 100% |
| COc1ccc(C2=NCC(CBr)S2)cc1 (stereo not given) | inactive: 97% |
| O=[N+]([O-])c1cccc2n[nH]nc12 | inactive: 106% |

| Structure (SMILES) | percent activity (GTP binding) |
| --- | --- |
| CC(=O)N1C2C3N(C(C)=O)C1C1N(C(C)=O)C(C(N1C(C)=O)N3C(C)=O)N2C(C)=O | inactive: 98% |
| CCc1nc2c(n1)c1c(non1O)c1c2no[n+]1[O-] | inactive: 97% |
| O=[N+]([O-])c1cc([N+](=O)[O-])c(CCNc2ccccc2)c([N+](=O)[O-])c1 | inactive: 97% |
| Cc1ccc(NP(=O)(Oc2ccccc2)Oc2ccccc2)nc1 | inactive: 97% |
| O=[N+]([O-])c1ncn(CCn2ncnc2[N+](=O)[O-])n1 | inactive: 94% |
| CC(=O)NC(SC(=S)N(C)C)C(Cl)(Cl)Cl (stereo not given) | inactive: 100% |
| C(Cc1nn[nH]n1)Cc1nn[nH]n1 | inactive: 106% |
| O=C(OC1CN2CCC1CC2)c1cccc(Cl)c1 (stereo not given) | inactive: 102% |
| O=P(Nc1ccccn1)(c1ccc(Br)cc1)c1ccc(Br)cc1 | inactive: 96% |
| CC(C)C(=O)NC(Sc1ccccc1)C(Cl)(Cl)Cl (stereo not given) | inactive: 101% |
| O=P(Nc1nccs1)(c1ccccc1)c1ccccc1 | inactive: 104% |
| c1nnnn1CCn1cnnn1 | inactive: 104% |
| CC(=O)Nc1ccc(Oc2c([N+](=O)[O-])cc([N+](=O)[O-])cc2[N+](=O)[O-])cc1 | inactive: 87% |
| CCOc1ccc(C2=NCC(CBr)S2)cc1 (stereo not given) | inactive: 98% |
| O=P1(Nc2nc3ccc(Cl)cc3s2)COc2ccccc2O1 (stereo not given) | inactive: 93% |
| CC(C)(C)C(=O)NC(Sc1ccccc1)C(Cl)(Cl)Cl (stereo not given) | inactive: 93% |
| CC(=O)NC(SC(=S)N(CC(C)C)CC(C)C)C(Cl)(Cl)Cl (stereo not given) | inactive: 101% |
| Cc1ccc(OP(=O)(Nc2ccccn2)Oc2ccc(C)cc2)cc1 | inactive: 93% |
| COC(=O)c1cc2c(s1)N=C(c1ccccc1)N(C)P2(=O)N1CCOCC1 (stereo not given) | inactive: 95% |
| CCC(=O)N1C2C3N(C(=O)CC)C1C1N(C(=O)CC)C(C(N1C(=O)CC)N3C(=O)CC)N2C(=O)CC | inactive: 100% |
| O=c1c2cc([N+](=O)[O-])ccc2[nH]c2c([N+](=O)[O-])cc([N+](=O)[O-])cc12 | inactive: 91% |
| CCNC(=S)/N=C(\N)N[N+](=O)[O-] | inactive: 97% |
| O=C(NC1CCS(=O)(=O)C1)NP(=S)(Oc1ccccc1)Oc1ccccc1 (stereo not given) | inactive: 96% |
| CCOC(=O)NC(Sc1ccccc1)C(Cl)(Cl)Cl (stereo not given) | inactive: 96% |
| c1ccc(-c2nn[nH]n2)c(-c2nn[nH]n2)c1 | inactive: 95% |

Source: PubChem BioAssay AID761 (NMMLSC, 2007)
